The results in this text go back to patent US11046696B2, “Fused pyrimidine compound or salt thereof” (TAIHO PHARMACEUTICAL CO., LTD., priority 2016, dated 2021).

Amino acid sequences for entries named in this document (tags omitted). A change or cut given only in a name is not applied to a line headed by its entry.
UniProt P06239: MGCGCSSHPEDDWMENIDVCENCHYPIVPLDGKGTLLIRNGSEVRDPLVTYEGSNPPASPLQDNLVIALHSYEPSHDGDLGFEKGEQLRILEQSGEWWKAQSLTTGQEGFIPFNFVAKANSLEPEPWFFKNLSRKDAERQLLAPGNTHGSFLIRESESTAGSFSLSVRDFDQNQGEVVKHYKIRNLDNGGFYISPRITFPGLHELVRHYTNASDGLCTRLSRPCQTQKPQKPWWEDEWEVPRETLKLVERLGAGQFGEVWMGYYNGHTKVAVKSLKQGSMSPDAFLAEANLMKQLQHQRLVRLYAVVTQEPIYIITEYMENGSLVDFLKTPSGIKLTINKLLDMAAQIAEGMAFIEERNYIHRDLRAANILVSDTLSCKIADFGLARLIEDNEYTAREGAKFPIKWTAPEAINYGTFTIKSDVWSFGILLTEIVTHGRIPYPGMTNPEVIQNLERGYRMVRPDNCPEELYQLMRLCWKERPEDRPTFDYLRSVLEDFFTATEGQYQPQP

Assay [1] addresses recombinant human LCK protein (Homo sapiens (Human), UniProt P06239). Description: LCK inhibitory activity measurement. The assay is classed as biochemical. The following applies: selectivity for RET inhibition over LCK.
The target in assay [2] is recombinant human SRC protein (Homo sapiens (Human), UniProt P12931). Description: SRC inhibitory activity measurement. Type of assay: biochemical. The following applies: selectivity for RET inhibition over SRC.

SMILES strings stand for the structures.

`Cc1ccc(-c2nn(C(C)(C)C)c3ncnc(N)c23)cc1`: the “LCK IC50 (nM)/RET IC50 (nM)” value in assay [1] was found to be 12. Moreover, the “SRC IC50 (nM)/RET IC50 (nM)” value in assay [2] came out at 10.
